Source: patent US11667602B2, “Compounds and their use” (AstraZeneca AB, priority 2020, dated 2023)

What follows are compounds tested against T1, human RXFP1 (Homo sapiens, UniProt Q9HBX9) (assay: RXFP1 Hu cAMP (Test A)).
T1 sequence (Q9HBX9 1-757): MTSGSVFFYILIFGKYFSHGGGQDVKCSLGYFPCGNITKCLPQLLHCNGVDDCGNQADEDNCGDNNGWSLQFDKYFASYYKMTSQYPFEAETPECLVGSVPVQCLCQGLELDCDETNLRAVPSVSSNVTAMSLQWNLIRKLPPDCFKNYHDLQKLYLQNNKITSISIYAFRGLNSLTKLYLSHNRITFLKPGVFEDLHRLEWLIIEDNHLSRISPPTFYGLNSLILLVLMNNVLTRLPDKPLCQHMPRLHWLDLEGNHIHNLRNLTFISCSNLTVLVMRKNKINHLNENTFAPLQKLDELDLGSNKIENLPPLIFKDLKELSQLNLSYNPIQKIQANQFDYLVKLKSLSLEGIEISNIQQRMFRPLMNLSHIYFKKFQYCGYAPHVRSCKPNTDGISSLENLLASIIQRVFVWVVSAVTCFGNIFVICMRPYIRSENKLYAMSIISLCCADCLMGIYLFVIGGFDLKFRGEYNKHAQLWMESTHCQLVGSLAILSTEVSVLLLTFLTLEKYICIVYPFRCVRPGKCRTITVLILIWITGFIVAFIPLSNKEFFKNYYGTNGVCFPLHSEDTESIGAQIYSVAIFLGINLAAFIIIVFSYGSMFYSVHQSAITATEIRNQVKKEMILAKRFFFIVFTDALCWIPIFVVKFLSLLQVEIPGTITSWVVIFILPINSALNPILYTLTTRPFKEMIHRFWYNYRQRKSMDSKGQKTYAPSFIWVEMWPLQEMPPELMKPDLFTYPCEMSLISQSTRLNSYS
Format: cell-based
Parameters: expressed in transfected cells; host or cells: Jump-In T-REx CHO-K1 cells (ThermoFisher), induced with 10 ng/ml doxycycline for 24 h

| SMILES | Test A Sinf |
| --- | --- |
| COc1c(C#N)cc(O[C@H]2CC[C@@](C)(C(=O)O)CC2)cc1C(=O)N[C@@H]1[C@H]2CC[C@H](C2)[C@@H]1C(=O)NCC1(C)CCC1 [Example 404] | 109% |
| COc1cc(F)c(O[C@H]2CC[C@@](C)(C(=O)O)CC2)cc1C(=O)N[C@@H]1[C@H]2CC[C@H](C2)[C@@H]1C(=O)NCC(C)C [Example 34, (1S,4s)-4-(2-Fluoro-5-(((1S,2R,3S,4R)-3-(isobutylcarbamoyl)bicyclo[2.2.1]heptan-2-yl)carbamoyl)-4-methoxyphenoxy)-1-methylcyclohexane-1-carboxylic acid] | 103% |
| COc1cc(F)c(O[C@H]2CC[C@@](C)(C(=O)O)CC2)cc1C(=O)N[C@@H]1[C@H]2CC[C@H](C2)[C@@H]1C(=O)NCC(C)(C)C [Example 35, (1S,4s)-4-(2-Fluoro-4-methoxy-5-(((1S,2R,3S,4R)-3-(neopentylcarbamoyl)bicyclo[2.2.1]heptan-2-yl)carbamoyl)phenoxy)-1-methylcyclohexane-1-carboxylic acid] | 101% |
| COc1c(F)cc(O[C@H]2CC[C@@](C)(C(=O)O)CC2)cc1C(=O)N[C@@H]1[C@H]2CC[C@H](C2)[C@@H]1C(=O)NCC1(C)CCC1 [Example 374] | 102% |
| COc1ccc(O[C@H]2CC[C@@](C)(C(=O)O)CC2)cc1C(=O)N[C@@H]1[C@H]2CC[C@H](C2)[C@@H]1C(=O)NCC1(C)CCC1 [Example 381] | 114% |
